Literature values as cited in US6245563A, “Enhanced activation of natural killer cells using an NK cell activator and hydrogen peroxide scavenger or inhibitor” (priority 2000, dated 2001).

How the values were obtained:
[1] = system: NK cells; conditions: cited from earlier work
[2] = system: human neoplasia; conditions: cited from earlier work
[3] = system: established tumors; conditions: several animal tumor models; cited from earlier work

| Substance | effect on NK cell activity/cytotoxicity [1] | NK cell cytotoxicity in the presence of monocytes, combined with histamine or serotonin ([1]; IL-2 combined with histamine or serotonin, in vitro) | clinical anti-tumor outcome ([2]; high doses) | side effects / toxic reactions in patients ([2]; human, in vivo) | regression of established tumors [3] |
| --- | --- | --- | --- | --- | --- |
| IFN-β: interferon-β | enhance NK cell cytotoxicity | – | – | – | – |
| IL-2: a T-cell-derived cytokine | activates many NK-cell functions | augments NK cell cytotoxicity in the presence of monocytes in vitro | Only a small fraction of patients with metastatic melanoma or renal cell carcinoma show objective regression of tumor burden | severe side effects, including hypotension, fluid retention | can induce the regression of established tumors in several animal tumor models in vivo |
